Values of other authors, collected in US20250194589A1 (published 2025).

Conditions: 25° C.

Substance: Emamectin benzoate
- Degree of water-solubility: 24 µg/mL
